The values that follow come from patent publication US20150141324A1 (priority 2011, published 2015).

The chains behind the UniProt entries cited, without tags or fusion partners. Residues count along the entry.
UniProt P09958, 108-794: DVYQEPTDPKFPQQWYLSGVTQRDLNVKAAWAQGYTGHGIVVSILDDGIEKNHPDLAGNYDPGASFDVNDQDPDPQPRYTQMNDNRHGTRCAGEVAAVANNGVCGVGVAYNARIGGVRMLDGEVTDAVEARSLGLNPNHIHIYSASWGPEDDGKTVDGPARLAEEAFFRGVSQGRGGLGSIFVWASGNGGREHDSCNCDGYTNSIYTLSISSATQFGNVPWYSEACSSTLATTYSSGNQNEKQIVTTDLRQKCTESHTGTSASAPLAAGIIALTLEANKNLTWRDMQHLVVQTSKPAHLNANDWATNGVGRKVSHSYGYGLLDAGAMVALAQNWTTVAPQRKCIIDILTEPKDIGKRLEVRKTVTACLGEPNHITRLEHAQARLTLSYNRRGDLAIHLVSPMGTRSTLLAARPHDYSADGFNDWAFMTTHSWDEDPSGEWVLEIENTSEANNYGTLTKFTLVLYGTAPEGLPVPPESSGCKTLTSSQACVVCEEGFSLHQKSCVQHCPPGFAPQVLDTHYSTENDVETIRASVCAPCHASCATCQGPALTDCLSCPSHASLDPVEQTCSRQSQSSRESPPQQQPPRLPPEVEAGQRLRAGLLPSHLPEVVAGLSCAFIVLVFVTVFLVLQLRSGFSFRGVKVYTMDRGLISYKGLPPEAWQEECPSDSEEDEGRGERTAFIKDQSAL

In the assay the target is T1, furin (Homo sapiens, UniProt P09958).
T1 construct: endogenous in cells; host or cells: HEK293
It counts as cell-based.

In the case of `C[C@H](NC(=O)[C@H](CCCNC(=N)N)NC(=O)CCCCCCCN)C(=O)N[C@@H](CCCNC(=N)N)C(=O)N[C@@H](CCCNC(=N)N)C(=O)N[C@@H](CCCNC(=N)N)C(=O)N[C@@H](CCCCN)C(=O)N[C@@H](CCCCN)C(=O)N[C@@H](CCCNC(=N)N)C(=O)N[C@H](C(N)=O)[C@@H](C)O` [Aoc-RxxT], the “potency against furin in cell fusion inhibition, compared to RxxT control peptide” value is “increased potency”.
